Among the data in PMC2635097 (Molecular pharmacology, 2008) are EC50 values, retold here.

Protein sequences, listed by entry. Tags and fused reporters are not part of them.
UniProt Q9UGI6, whole entry: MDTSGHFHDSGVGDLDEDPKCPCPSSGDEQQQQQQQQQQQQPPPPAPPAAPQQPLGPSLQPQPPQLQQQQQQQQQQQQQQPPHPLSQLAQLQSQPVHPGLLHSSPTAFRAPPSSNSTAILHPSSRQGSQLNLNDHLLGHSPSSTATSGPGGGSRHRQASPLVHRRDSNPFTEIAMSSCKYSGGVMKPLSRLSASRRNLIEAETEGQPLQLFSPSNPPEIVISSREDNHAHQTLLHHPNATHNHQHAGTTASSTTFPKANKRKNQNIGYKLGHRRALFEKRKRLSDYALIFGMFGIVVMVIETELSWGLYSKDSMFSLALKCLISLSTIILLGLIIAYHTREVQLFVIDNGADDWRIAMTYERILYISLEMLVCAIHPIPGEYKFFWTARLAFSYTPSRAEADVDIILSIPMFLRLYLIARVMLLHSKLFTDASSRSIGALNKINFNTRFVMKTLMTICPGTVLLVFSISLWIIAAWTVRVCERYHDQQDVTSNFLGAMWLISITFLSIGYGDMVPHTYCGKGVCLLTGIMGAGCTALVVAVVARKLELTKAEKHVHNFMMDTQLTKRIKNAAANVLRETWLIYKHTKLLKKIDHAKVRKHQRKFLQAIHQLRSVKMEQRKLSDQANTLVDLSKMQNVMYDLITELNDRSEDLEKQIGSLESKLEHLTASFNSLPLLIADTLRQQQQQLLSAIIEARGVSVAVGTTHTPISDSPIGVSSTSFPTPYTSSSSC

One may read the EC50 as the concentration giving half of the maximal effect.

This experiment deals with hKCa2.3 (Homo sapiens, UniProt Q9UGI6). In words: Whole-cell patch-clamp of KCa2.3 currents. The following applies: read-out: EC50 KCa2.3 activation. Format: cell-based. (In patch-clamp work, channel activity is measured electrically.)

Molecules are shown by their SMILES.

For the molecule `Nc1nc2c(ccc3ccccc32)s1` [SKA-31, naphtho[1,2-d]thiazol-2-ylamine], the EC50 stood at 2900 nM.
